ChEMBL document CHEMBL1641510, “Mono-oxime bisquaternary acetylcholinesterase reactivators with prop-1,3-diyl linkage-Preparation, in vitro screening and molecular docking” (2011)

By UniProt entry, the sequences of proteins in these tests, tags left out. Where a name states a change or a piece, a line headed by the entry shows the natural chain unless it says otherwise.
UniProt P22303: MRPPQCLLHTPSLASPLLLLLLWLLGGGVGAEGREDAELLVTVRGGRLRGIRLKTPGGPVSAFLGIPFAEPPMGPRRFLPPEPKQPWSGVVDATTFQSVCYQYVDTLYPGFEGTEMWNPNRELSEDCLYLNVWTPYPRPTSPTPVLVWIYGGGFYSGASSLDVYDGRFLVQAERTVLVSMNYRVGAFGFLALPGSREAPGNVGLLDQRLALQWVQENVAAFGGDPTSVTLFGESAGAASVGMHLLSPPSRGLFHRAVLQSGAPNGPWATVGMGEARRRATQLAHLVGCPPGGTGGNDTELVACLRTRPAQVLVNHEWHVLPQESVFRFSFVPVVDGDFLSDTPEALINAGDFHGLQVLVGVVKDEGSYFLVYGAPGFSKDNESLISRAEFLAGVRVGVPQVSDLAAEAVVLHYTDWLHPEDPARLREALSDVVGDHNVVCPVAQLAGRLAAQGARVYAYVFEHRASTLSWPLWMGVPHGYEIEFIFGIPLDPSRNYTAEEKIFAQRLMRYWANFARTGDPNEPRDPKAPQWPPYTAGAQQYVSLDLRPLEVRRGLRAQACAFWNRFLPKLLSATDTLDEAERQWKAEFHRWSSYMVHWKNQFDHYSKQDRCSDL

Legend:
[1] = target: Acetylcholinesterase (Homo sapiens) (UniProt P22303); assay: Reactivation of GA-mediated inactive human recombinant AChE at 10 uM after 15 mins by Ellman's method
[2] = target: Acetylcholinesterase (Homo sapiens) (UniProt P22303); assay: Reactivation of MePOX-mediated inactive human recombinant AChE at 10 uM after 15 mins by Ellman's method
[3] = target: Acetylcholinesterase (Homo sapiens) (UniProt P22303); assay: Reactivation of GA-mediated inactive human recombinant AChE at 100 uM after 15 mins by Ellman's method
[4] = target: Acetylcholinesterase (Homo sapiens) (UniProt P22303); assay: Reactivation of DEP-mediated inactive human recombinant AChE at 100 uM after 15 mins by Ellman's method
[5] = target: Acetylcholinesterase (Homo sapiens) (UniProt P22303); assay: Reactivation of MePOX-mediated inactive human recombinant AChE at 100 uM after 15 mins by Ellman's method
[6] = target: Acetylcholinesterase (Homo sapiens) (UniProt P22303); assay: Reactivation of POX-mediated inactive human recombinant AChE at 100 uM after 15 mins by Ellman's method
[7] = target: Acetylcholinesterase (Homo sapiens) (UniProt P22303); assay: Reactivation of POX-mediated inactive human recombinant AChE at 10 uM after 15 mins by Ellman's method
[8] = target: Acetylcholinesterase (Homo sapiens) (UniProt P22303); assay: Reactivation of DEP-mediated inactive human recombinant AChE at 10 uM after 15 mins by Ellman's method

How did the Activity [1] turn out when `O/N=C/c1cc[n+](CCC[n+]2ccccc2)cc1` was run?
The Activity was 4.4%.

And the Activity [2]?
The Activity was 6%.

What about the Activity [3] of the same molecule?
The Activity was 5.3%.

What about the Activity [4] of the same molecule?
The Activity was 6.4%.

And the Activity [5]?
The Activity was 9.3%.

What about the Activity [6] of the same molecule?
Its Activity is 28.4%.

And the Activity [7]?
The Activity was 13%.

And the Activity [8]?
Its Activity is 1.7%.

How did the Activity [1] turn out when `O=C(O)c1cc[n+](CCC[n+]2ccc(/C=N/O)cc2)cc1` was run?
The Activity was 4.2%.

What about the Activity [2] of the same molecule?
Its Activity is 3.1%.

And the Activity [3]?
The Activity was 9.1%.

And the Activity [4]?
The Activity was 6.2%.

And the Activity [5]?
Its Activity is 7.5%.

And the Activity [6]?
Its Activity is 17%.

And the Activity [7]?
Its Activity is 30.7%.

And the Activity [8]?
Its Activity is 1.4%.

What does the source list for `NC(=O)c1cc[n+](CCC[n+]2ccc(/C=N/O)cc2)cc1`?
Activity [1]: 7.8%; Activity [3]: 15.2%; Activity [4]: 5.7%; Activity [5]: 55.6%; Activity [6]: 48%; Activity [7]: 20.8%; Activity [8]: 2.1%

With `Cc1cc[n+](CCC[n+]2ccc(/C=N/O)cc2)cc1` as the molecule, how does the Activity [1] read?
The Activity was 3.3%.

What about the Activity [2] of the same molecule?
Its Activity is 4.6%.

And the Activity [3]?
Its Activity is 3.8%.

And the Activity [4]?
The Activity was 13.1%.

What about the Activity [5] of the same molecule?
Its Activity is 14.3%.

And the Activity [6]?
The Activity was 15.9%.

What about the Activity [7] of the same molecule?
Its Activity is 23.8%.

And the Activity [8]?
Its Activity is 11.1%.

For `OCc1cc[n+](CCC[n+]2ccc(/C=N/O)cc2)cc1`, which Activity [1] is on record?
Its Activity is 3.6%.

And the Activity [2]?
The Activity was 3.5%.

What about the Activity [3] of the same molecule?
The Activity was 1.8%.

And the Activity [4]?
The Activity was 1.8%.

What about the Activity [5] of the same molecule?
Its Activity is 11.3%.

What about the Activity [6] of the same molecule?
Its Activity is 13.7%.

What about the Activity [7] of the same molecule?
Its Activity is 7.6%.

What about the Activity [8] of the same molecule?
Its Activity is 0.7%.

For `CC(C)(C)c1cc[n+](CCC[n+]2ccc(/C=N/O)cc2)cc1`, which Activity [1] is on record?
The Activity was 5.3%.

What about the Activity [2] of the same molecule?
Its Activity is 4.9%.

And the Activity [3]?
Its Activity is 3.4%.

And the Activity [4]?
Its Activity is 1.1%.

And the Activity [5]?
Its Activity is 6.8%.

And the Activity [6]?
Its Activity is 16.7%.

What about the Activity [7] of the same molecule?
The Activity was 0.6%.

What about the Activity [8] of the same molecule?
Its Activity is 0.1%.

For `N#Cc1cc[n+](CCC[n+]2ccc(/C=N\O)cc2)cc1`, which Activity [1] is on record?
The Activity was 5.9%.

What about the Activity [2] of the same molecule?
The Activity was 4%.

And the Activity [3]?
The Activity was 6.2%.

What about the Activity [4] of the same molecule?
The Activity was 12.7%.

And the Activity [5]?
Its Activity is 24.2%.

And the Activity [6]?
Its Activity is 15.8%.

And the Activity [7]?
Its Activity is 23.4%.

And the Activity [8]?
The Activity was 7.4%.

How did the Activity [1] turn out when `O/N=C/c1cc[n+](CCC[n+]2ccc(-c3ccccc3)cc2)cc1` was run?
Its Activity is 11.2%.

What about the Activity [2] of the same molecule?
Its Activity is 16.6%.

What about the Activity [3] of the same molecule?
The Activity was 10.1%.

What about the Activity [4] of the same molecule?
Its Activity is 3.9%.

What about the Activity [5] of the same molecule?
Its Activity is 31.6%.

What about the Activity [6] of the same molecule?
Its Activity is 23.2%.

And the Activity [7]?
The Activity was 21%.

And the Activity [8]?
The Activity was 2.3%.

`CC(=O)c1cc[n+](CCC[n+]2ccc(/C=N/O)cc2)cc1` was tested. Which Activity [1] did it give?
The Activity was 12.9%.

What about the Activity [2] of the same molecule?
The Activity was 31.2%.

What about the Activity [3] of the same molecule?
The Activity was 12.1%.

And the Activity [4]?
Its Activity is 1.8%.

And the Activity [5]?
The Activity was 10.7%.

And the Activity [6]?
Its Activity is 55.2%.

And the Activity [7]?
The Activity was 13.3%.

And the Activity [8]?
Its Activity is 0.1%.

How did the Activity [1] turn out when `CCOC(=O)c1cc[n+](CCC[n+]2ccc(/C=N/O)cc2)cc1` was run?
Its Activity is 8.2%.

And the Activity [2]?
The Activity was 28.1%.

What about the Activity [3] of the same molecule?
The Activity was 8.8%.

And the Activity [4]?
The Activity was 1.9%.

What about the Activity [5] of the same molecule?
The Activity was 15.3%.

And the Activity [6]?
Its Activity is 51.4%.

And the Activity [7]?
The Activity was 20.2%.

What about the Activity [8] of the same molecule?
Its Activity is 1.3%.

How did the Activity [2] turn out when `O/N=C/c1cc[n+](C[n+]2ccc(/C=N/O)cc2)cc1` was run?
The Activity was 14.3%.

And the Activity [4]?
The Activity was 2.4%.

What about the Activity [5] of the same molecule?
Its Activity is 14.2%.

What about the Activity [6] of the same molecule?
The Activity was 16.1%.

What about the Activity [7] of the same molecule?
The Activity was 1.8%.

And the Activity [8]?
The Activity was 0.6%.

How did the Activity [1] turn out when `N/C(=N\O)c1cc[n+](CCC[n+]2ccc(/C=N/O)cc2)cc1` was run?
The Activity was 8.9%.

What about the Activity [2] of the same molecule?
Its Activity is 52.2%.

And the Activity [3]?
The Activity was 9.6%.

What about the Activity [4] of the same molecule?
Its Activity is 3.1%.

What about the Activity [5] of the same molecule?
Its Activity is 37.2%.

What about the Activity [6] of the same molecule?
The Activity was 72.2%.

And the Activity [7]?
The Activity was 38.9%.

What about the Activity [8] of the same molecule?
Its Activity is 1.3%.

How did the Activity [1] turn out when `O/N=C/c1cc[n+](CCC[n+]2cccc3ccccc32)cc1` was run?
The Activity was 2.6%.

What about the Activity [2] of the same molecule?
The Activity was 9.5%.

What about the Activity [3] of the same molecule?
Its Activity is 0.6%.

And the Activity [4]?
Its Activity is 0.8%.

What about the Activity [5] of the same molecule?
Its Activity is 8.3%.

And the Activity [6]?
The Activity was 5.1%.

What about the Activity [7] of the same molecule?
The Activity was 7.5%.

And the Activity [8]?
Its Activity is 1.2%.

For `O/N=C/c1cc[n+](CCC[n+]2ccccn2)cc1`, which Activity [1] is on record?
Its Activity is 4.5%.

What about the Activity [2] of the same molecule?
Its Activity is 6.6%.

What about the Activity [3] of the same molecule?
Its Activity is 5.3%.

And the Activity [4]?
Its Activity is 1.2%.

And the Activity [5]?
The Activity was 8.8%.

And the Activity [6]?
The Activity was 26%.

And the Activity [7]?
Its Activity is 18.8%.

And the Activity [8]?
The Activity was 16.8%.

With `O/N=C/c1cc[n+](CCC[n+]2ccc3ccccc3c2)cc1` as the molecule, how does the Activity [1] read?
Its Activity is 4.2%.

And the Activity [2]?
The Activity was 7.9%.

And the Activity [3]?
Its Activity is 3%.

And the Activity [4]?
Its Activity is 0.6%.

What about the Activity [5] of the same molecule?
Its Activity is 18.5%.

And the Activity [6]?
Its Activity is 4.6%.

And the Activity [7]?
Its Activity is 6.7%.

What about the Activity [8] of the same molecule?
Its Activity is 0.8%.

`NC(=O)c1cc[n+](CCC[n+]2ccc(/C=N/O)cc2)cc1C(N)=O` was tested. Which Activity [1] did it give?
Its Activity is 4.4%.

And the Activity [2]?
Its Activity is 2.6%.

What about the Activity [3] of the same molecule?
The Activity was 5.4%.

What about the Activity [4] of the same molecule?
Its Activity is 0.6%.

What about the Activity [5] of the same molecule?
Its Activity is 10.3%.

What about the Activity [6] of the same molecule?
Its Activity is 9.9%.

What about the Activity [7] of the same molecule?
Its Activity is 29%.

And the Activity [8]?
Its Activity is 0.3%.
